Assay results as given in US9351929B2, “Antibiotic formulations, unit doses, kits, and methods” (Bayer Intellectual Property GMBH, priority 2005, dated 2016).

Assay: Aerosol particle size distribution by laser diffraction
Type: physicochemical
Conditions: solutions in WFI 40-120 mg/ml, fill 2-4 ml

volume median diameter of aerosol: 2-3 μm
Substance: gentamicin sulfate
